This note sets out measurements from doi:10.1101/2021.03.15.435551, “Discovery of SARS-CoV-2 papain-like protease inhibitors through a combination of high-throughput screening and FlipGFP-based reporter assay” (bioRxiv, 2021).

This test concerns the target T1, SARS-CoV-2 PL^pro (PL^pro; PL^pro-His) (Severe acute respiratory syndrome coronavirus 2, UniProt P0DTD1).
T1 construct: gene rep
Put plainly: enzyme kinetics, Lineweaver-Burk, FRET peptide. Type of test: biochemical.

Turning to `Cc1ccc(N)cc1C(=O)N[C@H](C)c1cccc2ccccc12` [GRL0617], the Ki entry was “For the Lineweaver-Burk plots of GRL0617, Jun9-13-7 and Jun9-13-9”.
